The text below walks through data of publication PMC10401653.

The target in test [1] is A11_(2-196), full-length annexin A11 proline-rich domain, GB1 tag cleaved (human) (UniProt P50995).
The target in test [2] is GB1-tagged A11_(2-196)^G175R (human) (UniProt P50995).
Test [3] deals with S100A6 (calcyclin) dimer (human) (UniProt P06703). Nature of the test: AUC; sedimentation velocity, 50,000 rpm, 20 °C, absorbance at 280 nm; individual constructs at ~20 and ~50 μM and mixtures of A11-PRD constructs with S100A6.

Usually stoichiometry N stands for the number of molecules, sites or subunits per partner or assembly.

As for “S100A6 (calcyclin) dimer (from UniProt P06703 1-90) (natural protein)”, the loss of ThT signal of A11 2-196 fibrils (50 μM, stationary phase, ~14 h) after addition of 100 μM S100A6 dimer; half-time t1/2; TEM showed a complete lack of fibrils in test [1] is 3.5 h. The substance also displayed a loss of ThT signal of fibrils of the G175R variant (50 μM, GB1-cleaved protein) after addition of 100 μM S100A6 dimer; half-time t1/2; residual fibrillar aggregates by TEM in test [2] of 13 h. In addition, the stoichiometry N in test [3] was 2.
